Laboratory results: patent publication EP4834881A1, “QUINOLONE COMPOUNDS AND USE THEREOF” (dated 2026)
Marks after values point to notes of the source that are not given here.

By UniProt entry, the sequences of proteins in these tests, tags left out.
UniProt Q96LB1, whole entry: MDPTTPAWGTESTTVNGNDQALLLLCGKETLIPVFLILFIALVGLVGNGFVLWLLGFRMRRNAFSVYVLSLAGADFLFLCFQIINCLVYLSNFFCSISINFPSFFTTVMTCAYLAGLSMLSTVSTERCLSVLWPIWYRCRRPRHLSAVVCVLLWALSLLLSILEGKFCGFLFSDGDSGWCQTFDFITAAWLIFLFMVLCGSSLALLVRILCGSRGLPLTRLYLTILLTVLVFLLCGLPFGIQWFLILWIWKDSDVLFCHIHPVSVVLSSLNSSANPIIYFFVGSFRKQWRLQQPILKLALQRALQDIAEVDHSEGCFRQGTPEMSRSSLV

Key:
human MRGPRX2 = human MRGPRX2 (Homo sapiens, UniProt Q96LB1); assay: In vitro target binding assay: BRET between MRGPRX2-Nluc and Venus-β-arrestin1 in transfected HEK-293T cells, antagonist mode against agonist R-ZINC-3573 (EC80); conditions: antagonism of agonist R-ZINC-3573 at EC80, net BRET
Excerpt: Bioluminescence Resonance Energy Transfer (BRET) is an important biophysical technique for monitoring molecular interactions, and has been widely used to study protein-protein interactions in living cells. This technique requires the relevant proteins to be linked to an energy donor (such as luciferase) and an acceptor (such as a fluorescent protein). When a relevant drug molecule interacts with the protein, the protein structure alters, causing a change in the distance between the energy donor and the energy acceptor. The luminescence energy induced by the chemical reaction is transferred to the corresponding acceptor, resulting in increased acceptor emission, and generating a BRET signal. In this work, a DNA-synthesized target human MRGPRX2 and a donor luciferase Nluc (NanoLuc®Promega) (Supplier: Beijing Tsingke, Lot No.: SZ0171228-1), as well as an acceptor fluorescent protein Venus and the relevant test protein, namely human β-arrestin1 (ARRB1) (Supplier: Guangzhou Dahong Biotechnology, Lot No. HY22694-4396), were utilized, and were inserted into the eukaryotic expression vector plasmid pcDNA3.1(+) (Supplier: Qiyun Bio, Lot No.: QY2310) as fusion genes via a Linker sequence (GGSG). The cell line selected for the experiment was human embryonic kidney cells HEK-293T. The human embryonic kidney cell line HEK-293T was routinely cultured in 10 cm cell culture dishes using complete culture medium consisting of high-glucose DMEM medium supplemented with 10% (V/V) fetal bovine serum. Cells were seeded at 2×10^6 cells/10 cm dish on the first day of culture, and passaged every 72 h with the same number of cells. One day prior to transfection, cells were resuspended, counted, and seeded at a density of 2×10^6 cells/6 cm dish or 4×10^6 cells/10 cm dish. Transfection was carried out 16-24 h after seeding. Plasmids constructed with the fusion protein gene were transfected into the expression cell line, and the transfected cells were cultured under appropriate conditions for a period of time to allow sufficient expression of the fusion proteins. Transfection was performed by encapsulating plasmid DNA with PEI reagent, and the encapsulation process should to be carried out in Opti-MEM medium. The ratio of plasmid, PEI (Supplier: Yeasen Biotechnology, Lot No.: WP5430010), and Opti-MEM (Supplier: Gibco, Lot No.: 2883564) was 1:4:14 (W: W: V). The encapsulated plasmid was added to an appropriate amount of complete culture medium, amd gently mixed, which was then used to replace the existing culture medium of the previously plated cells. Cells were harvested 24 h after transfection. Subsequently, cells were resuspended using HBSS (Source: Biosharp, Lot No.: 24179687) and counted with a cell counter. The cells were diluted to a density of (3~5) ×10^5 cells/mL, and then seeded into a flat-bottom white 96-well microplate at 100 µ L/well, resulting in (3~5) ×10^4 cells per well. In each well, 10 µ L of antagonist compounds diluted with HBSS a different concentrations were added firstly, then the agonist compound at a specific concentration (EC80) was added. After reacting for 2 min, the substrate Furimazine (Supplier: TargetMol, Lot No.: 362434) at a final concentration of 10 µM was added. After reacting for another 2 min, the 96-well plate was placed in a PHERAstar FSX microplate reader (Supplier: BMG Labtech) to simultaneously measure the readings at wavelengths of 440 nm and 530 nm. Based on the fluorescence readings at 440 nm and 530 nm, the Ratio and net BRET were calculated. Ratio = Em530 nm / Em440 nm, and net BRET = Ratio co-transfection - Ratio single-transfection. The calculated net BRET values were inputted into GraphPad Prism 9, and curve fitting via nonlinear regression (four-parameter equation) and IC50 calculation were performed.

BALB/c mice [1] = assay: Asthma model: OVA sensitization and aerosol challenge, bronchoalveolar lavage fluid (BALF) cell differential count; conditions: 5mg/kg PO, 7 days, mean ± SEM
Procedure: (§1) Experimental animals: BALB/c mice, from Guangdong Vital River Laboratory Animal Technology Co., Ltd.
(§2) Modeling was initiaed on the day of grouping, which was designated as M1. Except for the normal group, mice in all modeling groups were intraperitoneally injected with a sensitization solution of (500 µg OVA (Ovalbumin) (Supplier: Shanghai Macklin, Lot No.: C16255388) mixed with 5 mg aluminum hydroxide/mL) per mouse, while the normal control group was given an equal volume of sterile PBS solution. The injection cycle was M1, M7, and M14. Starting from M21, challenge was carried out by aerosolization once daily for 7 consecutive days. The challenge solution was a 20 mg/mL OVA (Ovalbumin) solution, and each aerosolization challenge lasted for 30 min. The normal control group was not subjected to aerosolization.
(§3) Administration was initiated on day M21, which was designated as D1, and was performed once daily for 7 consecutive days. The normal control group and the model control group were administered with vehicle alone under the same conditions. The administration regimen for the mouse asthma model was as follows:
The lungs were gently lavaged twice with normal saline to collect BALF. The recovered BALF was stored at 4 °C, and the cell differential count was detected using an automated hematology analyzer (Manufacturer: SYSMEX, Model: XN-1000). During the experiment, the asthma model mice developed typical symptoms, including shortness of breath, and ear and nose scratching, etc. […] The results of the bronchoalveolar lavage fluid cell differential count in each group are shown in Table 8, and the data are presented as mean ± standard error of the mean (SEM).

BALB/c mice [2] = assay: Asthma model: IgE assay (ELISA) in peripheral blood, alveolar lavage fluid and lung tissue; conditions: 5mg/kg PO, 7 days, mean ± SEM
Procedure: as §1, §2, §3
Prior to necropsy, blood was collected from the eyeball. The collected mouse blood was then centrifuged at 1800 r/min at 4 °C for 15 min, and the supernatant serum was aliquoted and stored at -80 °C for testing. At the same time, alveolar lavage fluid and lung tissues were collected. The IgE levels in the above three samples was detected using an ELISA method (Supplier: Shanghai Enzyme-linked Biotechnology Co., Ltd., Lot No.: ml1037602). […] The results of the IgE levels in peripheral blood, lavage fluid, and lung tissue of each group are shown in Table 9, and the data are presented as mean ± standard error of the mean (SEM).

COc1c(-c2ccc(S(=O)(=O)NC3CCOCC3)cc2)c(F)cc2c(=O)c(C(=O)O)cn(C3CC3)c12
IC50 (human MRGPRX2): 1 to 10 µM
Eosinophil Count (BALB/c mice [1]): 2.0 ±0.7** 10^9/L
Leukocyte Count WBC (BALB/c mice [1]): 2.6 ±0.7** 10^9/L
Lymphocyte Count (BALB/c mice [1]): 0.2±0.06* 10^9/L
Monocyte Count (BALB/c mice [1]): 0.1±0.04* 10^9/L
Neutrophil Count (BALB/c mice [1]): 0.2±0.05* 10^9/L
Alveolar Lavage Fluid IgE Concentration (BALB/c mice [2]; alveolar lavage fluid): 12.8 ± 0.9 ng/mL
Lung Tissue IgE Concentration (BALB/c mice [2]; lung tissue): 39.8 ± 2.4 ng/mL
Peripheral Blood IgE Concentration (BALB/c mice [2]; serum): 15.6 ± 5.8 ng/mL
